Laboratory results reported in patent US6706706B2, “Non-nucleoside reverse transcriptase inhibitors” (priority 2002, dated 2004).

system: HIV replication in C8166 cells, virus coding for wild type reverse transcriptase; assay: microbe, parasite or virus in culture; format: cell-based, HIV-1; conditions: Human immunodeficiency virus 1, C8166, 72 h, read-out: EC50 (WT) (nM)
Protocol: The compound of the invention was tested for its ability to inhibit HIV replication in cell culture in a 96-well plate assay. Complete RPMI 1640, consisting of RPMI 1640+10% fetal bovine serum, 10 μg/ml gentamycin and 10 μM β-mercaptoethanol was used for dilution of the compound as well as cell growth medium. The T lymphocyte cell line C8166 was infected at a multiplicity of infection of 0.001 with viruses coding for wild type and mutant reverse transcriptase. Cells were then incubated for three days in the presence of serial dilutions of the compound of the invention. The supernatant was pooled from eight replica wells and the concentration of extracellular p24 was determined using a commercially available HIV-1 p24 antigen assay kit (Beckman-Coulter®). The level of inhibition (% inhibition) was calculated with the following equation: [formula]

| SMILES | EC50 |
| --- | --- |
| CCN1c2ncc(CCOc3ccc(C(=O)O)cc3Br)cc2C(=O)N(C)c2cccnc21 [Entry 1005] | < 50 nM |
| CCN1c2ncc(CCOc3ccc(C(=O)O)cc3C)cc2C(=O)N(C)c2ccc(C)nc21 [Entry 1017] | < 50 nM |
| CCN1c2ncc(CCOc3ccc(C(=O)O)cc3C)cc2C(=O)N(C)c2ccc(F)nc21 [Entry 1020] | < 50 nM |
| CCN1c2ncc(CCOc3ccc(C(=O)O)cc3C)cc2C(=O)N(C)c2ccc(Cl)nc21 [Entry 1015] | < 50 nM |
| CCN1c2ncc(CCOc3ccc(C(=O)O)cc3C)cc2C(=O)N(C)c2ccc(OC)nc21 [Entry 1019] | < 50 nM |
| CCc1cc(C(=O)O)ccc1OCCc1cnc2c(c1)C(=O)N(C)c1cccnc1N2CC [Entry 1003] | < 50 nM |
